For one data set, the target named is NaV1.5 (Homo sapiens (Human), UniProt Q14524). The experiment in a line: Patch voltage clamp electrophysiology (EP), affinity for the inactivated state of Nav1.5. The data set is classed as cell-based. Here is the method: Patch voltage clamp electrophysiology allows for the direct measurement and quantification of block of voltage-gated sodium channels (Nav's), and allows the determination of the time- and voltage-dependence of block which has been interpreted as differential binding to the resting, open, and inactivated states of the sodium channel (Hille, B., Journal of General Physiology (1977), 69: 497-515).
(§1) The following patch voltage clamp electrophysiology studies were performed on representative compounds of the invention using human embryonic kidney cells (HEK), permanently transfected with an expression vector containing the full-length cDNA coding for the desired human sodium channel α-subunit, grown in culture media containing 10% FBS, 1% PSG, and 0.5 mg/mL G418 at 37° C. with 5% CO2. […] Nav1.7 and Nav1.5 cDNAs (NM_002977 and AC137587; SCN5A, respectively) were stably expressed in HEK-293 cells. The β1 subunit was coexpressed only in the Nav1.7 cell line.
(§2) Sodium currents were measured using the patch clamp technique in the whole-cell configuration using either a PatchXpress automated voltage clamp or manually using an Axopatch 200B (Axon Instruments) or Model 2400 (A-M systems) amplifier. The manual voltage clamp protocol was as follows: Borosilicate glass micropipettes were fire-polished to a tip diameter yielding a resistance of 2-4 Mohms in the working solutions. The pipette was filled with a solution comprised of: 5 mM NaCl, 10 mM CsCl, 120 mM CsF, 0.1 mM CaCl2, 2 mM MgCl2, 10 mM HEPES, 10 mM EGTA; and adjusted to pH 7.2 with CsOH. The external solution had the following composition: 140 mM NaCl, 5 mM KCl, 2 mM CaCl2, 1 mM MgCl2, 10 mM HEPES; and adjusted to pH 7.4 with NaOH. In some studies, the external sodium was reduced by equimolar replacement with choline. Osmolarity in the CsF internal and NaCl external solutions was adjusted to 300 mOsm/kg and 310 mOsm/kg with glucose, respectively. All recordings were performed at ambient temperature in a bath chamber with a volume of 150 μL. Control sodium currents were measured in 0.5% DMSO. Controls and representative compounds of the invention were applied to the recording chamber through a 4-pinch or 8-pinch valve bath perfusion system manufactured by ALA Scientific Instruments.
Currents were recorded at 40 kHz sampling frequency, filtered at […], and stored using a Digidata-1322A analogue/digital interface with the pClamp software (Axon Instruments). Series resistance compensation was applied (60-80%). […]
The membrane potential was maintained at a voltage where inactivation of the channel is complete (which was −60 mV for both Nav1.7 and Nav1.5). The voltage is then stepped back to a very negative (Vhold=−150 mV) voltage for 20 ms and then a test pulse is applied to quantify the compound block. […]

Chains of the proteins cited; added tags and fusions are not shown. A line that says so, or that is headed by a name, gives the form on record, which may keep a tag or linker.
UniProt Q14524, whole entry: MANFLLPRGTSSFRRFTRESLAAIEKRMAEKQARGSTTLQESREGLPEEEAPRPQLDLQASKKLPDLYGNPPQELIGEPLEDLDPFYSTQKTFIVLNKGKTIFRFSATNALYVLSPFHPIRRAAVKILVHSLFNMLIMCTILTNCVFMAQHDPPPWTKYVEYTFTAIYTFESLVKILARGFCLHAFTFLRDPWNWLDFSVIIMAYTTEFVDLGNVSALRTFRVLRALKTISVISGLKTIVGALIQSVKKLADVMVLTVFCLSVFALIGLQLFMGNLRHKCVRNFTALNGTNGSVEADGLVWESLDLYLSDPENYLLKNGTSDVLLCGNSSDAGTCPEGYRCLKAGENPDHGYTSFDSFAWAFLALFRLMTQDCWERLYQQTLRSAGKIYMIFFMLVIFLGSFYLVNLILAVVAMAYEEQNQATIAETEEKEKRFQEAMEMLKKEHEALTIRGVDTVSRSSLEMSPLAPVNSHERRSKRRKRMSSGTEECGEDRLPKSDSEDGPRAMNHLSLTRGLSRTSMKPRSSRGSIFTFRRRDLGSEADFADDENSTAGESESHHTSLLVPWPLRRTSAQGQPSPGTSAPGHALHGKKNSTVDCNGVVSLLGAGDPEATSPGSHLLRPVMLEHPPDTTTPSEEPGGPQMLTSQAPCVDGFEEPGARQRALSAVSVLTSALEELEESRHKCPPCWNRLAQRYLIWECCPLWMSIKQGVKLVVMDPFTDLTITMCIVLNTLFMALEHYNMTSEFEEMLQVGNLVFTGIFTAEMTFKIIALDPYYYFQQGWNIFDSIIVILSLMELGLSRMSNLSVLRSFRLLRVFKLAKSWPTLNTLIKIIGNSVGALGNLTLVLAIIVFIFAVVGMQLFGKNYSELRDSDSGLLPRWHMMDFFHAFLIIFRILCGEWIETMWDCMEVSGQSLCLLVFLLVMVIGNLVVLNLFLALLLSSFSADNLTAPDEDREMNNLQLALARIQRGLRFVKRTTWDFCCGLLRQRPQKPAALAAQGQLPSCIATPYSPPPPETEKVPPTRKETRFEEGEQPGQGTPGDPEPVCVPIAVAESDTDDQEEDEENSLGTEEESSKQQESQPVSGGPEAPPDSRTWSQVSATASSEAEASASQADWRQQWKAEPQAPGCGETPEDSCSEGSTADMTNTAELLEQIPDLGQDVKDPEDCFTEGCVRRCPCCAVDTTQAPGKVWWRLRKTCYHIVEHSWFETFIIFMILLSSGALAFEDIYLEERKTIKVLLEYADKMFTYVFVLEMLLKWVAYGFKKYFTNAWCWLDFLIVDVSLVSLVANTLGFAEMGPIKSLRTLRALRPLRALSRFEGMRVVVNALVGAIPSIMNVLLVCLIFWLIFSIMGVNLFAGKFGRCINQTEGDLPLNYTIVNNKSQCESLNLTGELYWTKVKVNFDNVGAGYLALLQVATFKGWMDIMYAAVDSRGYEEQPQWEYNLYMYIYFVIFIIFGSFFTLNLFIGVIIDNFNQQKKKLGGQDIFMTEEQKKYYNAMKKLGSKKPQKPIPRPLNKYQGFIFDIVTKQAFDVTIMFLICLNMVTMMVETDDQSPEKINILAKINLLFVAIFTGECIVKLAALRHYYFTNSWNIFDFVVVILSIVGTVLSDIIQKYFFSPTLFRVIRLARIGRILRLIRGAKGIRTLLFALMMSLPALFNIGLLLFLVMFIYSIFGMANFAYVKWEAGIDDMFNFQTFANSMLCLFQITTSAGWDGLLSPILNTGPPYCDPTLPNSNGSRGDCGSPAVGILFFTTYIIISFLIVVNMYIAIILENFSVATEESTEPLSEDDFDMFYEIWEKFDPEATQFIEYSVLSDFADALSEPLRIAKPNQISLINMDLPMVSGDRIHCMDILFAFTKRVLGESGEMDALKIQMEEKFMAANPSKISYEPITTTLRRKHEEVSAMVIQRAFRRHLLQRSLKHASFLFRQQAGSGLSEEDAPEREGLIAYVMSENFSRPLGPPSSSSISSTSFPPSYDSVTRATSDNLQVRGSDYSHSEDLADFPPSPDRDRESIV
UniProt Q15858, other isoform, or with tags, fused parts or gaps: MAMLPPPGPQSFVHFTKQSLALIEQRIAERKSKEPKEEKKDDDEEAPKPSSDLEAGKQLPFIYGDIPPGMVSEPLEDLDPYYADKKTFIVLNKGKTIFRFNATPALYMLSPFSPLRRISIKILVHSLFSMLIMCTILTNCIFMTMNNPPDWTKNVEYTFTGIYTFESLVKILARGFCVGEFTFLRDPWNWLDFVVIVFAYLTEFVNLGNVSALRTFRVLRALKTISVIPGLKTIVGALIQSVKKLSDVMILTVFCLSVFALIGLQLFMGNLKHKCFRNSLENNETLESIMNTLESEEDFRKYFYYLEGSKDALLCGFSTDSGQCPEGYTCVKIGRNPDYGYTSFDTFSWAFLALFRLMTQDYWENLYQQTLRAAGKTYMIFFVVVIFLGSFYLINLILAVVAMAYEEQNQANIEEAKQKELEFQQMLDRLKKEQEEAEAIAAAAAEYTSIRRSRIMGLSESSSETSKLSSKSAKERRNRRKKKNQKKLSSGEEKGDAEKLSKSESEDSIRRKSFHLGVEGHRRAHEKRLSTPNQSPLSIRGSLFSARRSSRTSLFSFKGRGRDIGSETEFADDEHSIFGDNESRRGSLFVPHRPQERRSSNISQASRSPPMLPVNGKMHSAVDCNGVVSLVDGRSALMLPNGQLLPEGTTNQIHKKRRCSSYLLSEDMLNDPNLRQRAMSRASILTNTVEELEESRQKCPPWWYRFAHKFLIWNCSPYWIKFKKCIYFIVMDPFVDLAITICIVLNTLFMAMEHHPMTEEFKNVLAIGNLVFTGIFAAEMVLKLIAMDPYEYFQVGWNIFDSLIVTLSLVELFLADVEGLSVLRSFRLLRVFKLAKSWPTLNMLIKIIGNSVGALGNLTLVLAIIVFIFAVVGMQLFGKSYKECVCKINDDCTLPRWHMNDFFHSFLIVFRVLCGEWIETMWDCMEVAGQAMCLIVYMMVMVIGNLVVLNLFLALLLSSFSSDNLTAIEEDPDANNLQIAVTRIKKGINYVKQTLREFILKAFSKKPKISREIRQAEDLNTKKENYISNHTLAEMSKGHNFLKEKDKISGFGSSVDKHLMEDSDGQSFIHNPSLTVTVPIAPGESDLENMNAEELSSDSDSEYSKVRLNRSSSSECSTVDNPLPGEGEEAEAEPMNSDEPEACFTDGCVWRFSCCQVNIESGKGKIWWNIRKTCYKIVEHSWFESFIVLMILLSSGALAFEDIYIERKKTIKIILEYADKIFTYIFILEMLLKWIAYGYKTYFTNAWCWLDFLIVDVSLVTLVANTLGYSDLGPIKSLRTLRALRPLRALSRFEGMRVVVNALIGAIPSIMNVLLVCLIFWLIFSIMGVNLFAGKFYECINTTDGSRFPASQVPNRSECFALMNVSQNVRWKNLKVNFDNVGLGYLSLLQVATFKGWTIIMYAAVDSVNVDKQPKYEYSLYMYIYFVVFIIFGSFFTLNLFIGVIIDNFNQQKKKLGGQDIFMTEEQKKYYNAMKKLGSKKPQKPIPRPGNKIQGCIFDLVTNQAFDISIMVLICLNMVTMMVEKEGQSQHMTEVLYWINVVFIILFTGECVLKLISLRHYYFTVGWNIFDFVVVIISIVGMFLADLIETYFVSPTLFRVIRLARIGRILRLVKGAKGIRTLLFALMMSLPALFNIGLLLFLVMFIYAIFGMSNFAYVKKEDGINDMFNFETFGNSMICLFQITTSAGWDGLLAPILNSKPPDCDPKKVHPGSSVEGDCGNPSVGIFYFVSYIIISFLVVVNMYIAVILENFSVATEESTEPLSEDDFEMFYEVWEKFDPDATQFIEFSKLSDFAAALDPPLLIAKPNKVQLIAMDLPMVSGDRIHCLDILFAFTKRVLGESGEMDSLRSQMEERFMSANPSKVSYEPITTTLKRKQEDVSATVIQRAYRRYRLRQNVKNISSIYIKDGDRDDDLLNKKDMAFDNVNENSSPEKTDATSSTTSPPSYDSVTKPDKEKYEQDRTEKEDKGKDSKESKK

In another data set the target is NaV1.7 (Homo sapiens (Human), UniProt Q15858). The experiment in a line: Patch voltage clamp electrophysiology (EP), affinity for the inactivated state of Nav1.7. The data set is classed as cell-based. To be noted: HEK-293 cells expressing human Nav1.7 with β1 subunit. Here is the method:
as §1, §2
Series resistance compensation was applied (60-80%). […] All statistics in this study are given as mean±SD.
The membrane potential was maintained at a voltage where inactivation of the channel is complete (which was −60 mV for both Nav1.7 and Nav1.5). The voltage is then stepped back to a very negative (Vhold=−150 mV) voltage for 20 ms and then a test pulse is applied to quantify the compound block. […] The percent decrease in sodium current following wash-on of compound was taken as the percent block of sodium channels.
The Example numbers provided in Table 1 and Table 2 correspond to the Examples herein: […]

The mark [1] stands for this setting: HEK-293 cells expressing human Nav1.5, read-out: NaV1.5 IC50.
The mark [2] stands for this setting: HEK-293 cells expressing human Nav1.5, read-out: NaV1.5 IC50(μM) (class).

Where two headings read alike, the source gives them in different places. Some results are limits rather than exact numbers.

The results in this text go back to patent publication US9630929B2, “Benzenesulfonamide compounds and their use as therapeutic agents” (XENON PHARMACEUTICALS INC., priority 2011, dated 2017).

In the case of `O=S(=O)(Nc1ncns1)c1cc(F)c(OC[C@@H]2CNCC[C@H]2c2ccc(Cl)cc2)cc1F` (relative stereo) [Example 44, 4-((trans-4-(4-chlorophenyl)piperidin-3-yl)methoxy)-2,5-difluoro-N-(1,2,4-thiadiazol-5-yl)benzenesulfonamide], the IC50 at NaV1.5 (setting [1]) and at NaV1.5 (setting [2]) was over 10 µM in each case.

On to `O=S(=O)(Nc1ncns1)c1cc(F)c(OC[C@@H]2CNCC[C@H]2c2ccc(F)c(F)c2)cc1F` (relative stereo) [Example 48, 4-((trans-4-(3,4-difluorophenyl)piperidin-3-yl)methoxy)-2,5-difluoro-N-(1,2,4-thiadiazol-5-yl)benzenesulfonamide], for which the figures for the IC50 at NaV1.7 (read-out: NaV1.7 (IC50 class)) and on NaV1.7 (read-out: NaV1.7 IC50) were under 0.1 µM and 0.0026 µM, respectively.

Regarding `O=S(=O)(Nc1ccncn1)c1cc(F)c(OC[C@@H]2CNCC[C@H]2c2ccc(Cl)cc2)cc1F` (relative stereo) [Example 60, 4-((trans-4-(4-chlorophenyl)piperidin-3-yl)methoxy)-2,5-difluoro-N-(pyrimidin-4-yl)benzenesulfonamide], the values for the IC50 at NaV1.7 (read-out: NaV1.7 (IC50 class)) and on NaV1.7 (read-out: NaV1.7 IC50) were under 0.1 µM and 0.033 µM, respectively.

In the case of `O=S(=O)(Nc1ncc(Cl)s1)c1cc(F)c(OC[C@@H]2CNCC[C@H]2c2ccc(Cl)cc2)cc1F` (relative stereo) [Example 62, 4-((trans-4-(4-chlorophenyl)piperidin-3-yl)methoxy)-N-(5-chlorothiazol-2-yl)-2,5-difluorobenzenesulfonamide], the IC50 on NaV1.7 (read-out: NaV1.7 (IC50 class)) is under 0.1 µM; on NaV1.7 (read-out: NaV1.7 IC50), 0.023 µM.

For `O=S(=O)(Nc1ncns1)c1cc(F)c(OC[C@H]2CNCC[C@H]2c2ccc(Cl)cc2)cc1F` (relative stereo) [Example 66, 4-((cis-4-(4-chlorophenyl)piperidin-3-yl)methoxy)-2,5-difluoro-N-(1,2,4-thiadiazol-5-yl)benzenesulfonamide], the IC50 at NaV1.7 (read-out: NaV1.7 (IC50 class)) was 0.1 to 1 µM.

With `O=S(=O)(Nc1ncns1)c1cc(F)c(OC[C@@H]2CNCC[C@H]2c2ccc(Cl)c(F)c2)cc1F` (relative stereo) [Example 97, 4-((trans-4-(4-chloro-3-fluorophenyl)piperidin-3-yl)methoxy)-2,5-difluoro-N-(1,2,4-thiadiazol-5-yl)benzenesulfonamide], the IC50 was under 0.1 µM at NaV1.7 (read-out: NaV1.7 (IC50 class)) and 0.0009 µM at NaV1.7 (read-out: NaV1.7 IC50).

For `O=S(=O)(Nc1ncns1)c1cc(F)c(OC[C@@H]2CNCC[C@H]2c2ccc(Cl)cc2)cc1F` [Example 84, 4-(((3S,4R)-4-(4-chlorophenyl)piperidin-3-yl)methoxy)-2,5-difluoro-N-(1,2,4-thiadiazol-5-yl)benzenesulfonamide], the IC50 at NaV1.5 (setting [1]) and at NaV1.5 (setting [2]) was over 10 µM throughout.

For orientation: IC50 means the concentration that inhibits the measured activity by half.
